This data set deals with healthy subjects. Put plainly: Phase I New Zealand safety. The following applies: two phase I studies, healthy volunteers.

With `CC(C)n1cnc(-c2ccc(F)cc2)c1-c1ncc(C(=O)Nc2ccc(N3CCN(C)CC3)cc2)[nH]1`, the safety and tolerability entry was “safe and well tolerated”.

The values above are taken from PMC11738990.
